CCT modulator: High-Throughput Screening for Modulators of Cytosolic Chaperonin Activity. purified chaperonin ATPase assay, HTRF ADP detection, 30 min. activity change, % (test concentration not listed), hits read low. 360,000 tested, 0.3% active. AID 651819, 2012; in the data active = activity change below about -30%
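TRiC (40 or 20 nM final, by batch activity) in 30 mM Tris pH 7.4, 100 mM KCl, 5 mM MgCl2, 1 mM DTT was treated with compound at 76 uM single dose, then 10 uM ATP, 30 min at 37 °C. ADP was read by HTRF Transcreener.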
Rango release inh: qHTS Assay for Inhibitors of RanGTP induced Rango (Ran-regulated importin-beta cargo) - Importin beta complex dissociation | Snurportin-1 (Homo sapiens) + GTP-binding nuclear protein Ran (Homo sapiens) + Importin … | Biochemical FRET Rango-importin beta, RanGTP-induced dissociation | Potency, µM (top dose mostly 46.1 µM) | 340,000 tested, 0.071% active | AID 540253, 2011; note: nearly all actives have a fitted effect of over 45% in size
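Compounds preincubate 5 min with complex of recombinant Rango and importin beta in PBS with 1 mM DTT. Ran (0.6 uM) loaded with 2 mM GTP plus 0.2 uM RCC1 starts dissociation; FRET is recorded 45 min later.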
Giardia kill: Small Molecules that selectively kill Giardia lamblia: qHTS. activity change, % at 7.66 µM, hits read low. 340,000 tested, 0.15% active. Giardia lamblia trophozoite viability; in the data active = activity change below about -80%; inconclusive = between about -30% and that limit;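 note: parasites exposed to compound for two days anaerobically before the ATP read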
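Luminescent ATP signal served as the viability read-out, measured 15-30 min after adding ATP detection reagent to trophozoites that had been incubated with compounds for 48 hrs at 37 deg C anaerobically at 100 cells/well.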
Rango-impB inh: qHTS Assay for Inhibitors of Rango (Ran-regulated importin-beta cargo) - Importin beta complex formation. Potency, µM (series often up to 92.2 µM). 340,000 tested, 0.031% active. AID 540263, 2011. Importin subunit beta-1 (Homo sapiens), Q14974. Rango CFP/YFP FRET sensor + importin beta, 45 min; note: nearly all actives have a fitted effect of over 15% in size
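Inhibition scored from the CFP 486 nm/YFP 530 nm FRET ratio 45 min after adding 0.125 microM importin beta to 50 nM Rango biosensor preincubated 5 min with compound (room temperature, PBS with DTT, Tween-20, BSA). No-importin wells as positive control.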
MmCpn inh: Inhibitors of TCP-1 ring complex (TRiC) of Methanococcus maripaludis (MmCpn): qHTS; AID 504842, 2011; Chaperonin Mm-Cpn (Methanococcus maripaludis); Potency, µM (series often up to 76.9 µM), actives largely listed as inhibitors; 330,000 tested, 0.031% active; purified Mm-Cpn ATPase, ADP Transcreener TR-FRET; active = well fitted inhibition curve with a large enough effect; inconclusive = small, poorly fitted or top-dose-only effect; note: nearly all actives have a fitted effect of over 80% in size
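Compound-treated chaperonin, 25 nM final, turns over 10 uM ATP at 37°C for 30 min following a 10 min preincubation; ADP generated competes with ADP-d2 for Eu-cryptate antibody, lowering FRET.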
Hits are given with their value; – = inactive; ? = inconclusive; · = not tested or not shown; [ ] = another dose, or the depositor's remark. Sampled rows, rich in hits. Any-hit rate of the full collection: about 0.53%. Unless noted, calls come from the whole dose curve.

By UniProt entry, the sequences of proteins in these tests, tags left out.
Importin subunit beta-1 (Homo sapiens), Q14974, UniProt Q14974, whole entry, looked up: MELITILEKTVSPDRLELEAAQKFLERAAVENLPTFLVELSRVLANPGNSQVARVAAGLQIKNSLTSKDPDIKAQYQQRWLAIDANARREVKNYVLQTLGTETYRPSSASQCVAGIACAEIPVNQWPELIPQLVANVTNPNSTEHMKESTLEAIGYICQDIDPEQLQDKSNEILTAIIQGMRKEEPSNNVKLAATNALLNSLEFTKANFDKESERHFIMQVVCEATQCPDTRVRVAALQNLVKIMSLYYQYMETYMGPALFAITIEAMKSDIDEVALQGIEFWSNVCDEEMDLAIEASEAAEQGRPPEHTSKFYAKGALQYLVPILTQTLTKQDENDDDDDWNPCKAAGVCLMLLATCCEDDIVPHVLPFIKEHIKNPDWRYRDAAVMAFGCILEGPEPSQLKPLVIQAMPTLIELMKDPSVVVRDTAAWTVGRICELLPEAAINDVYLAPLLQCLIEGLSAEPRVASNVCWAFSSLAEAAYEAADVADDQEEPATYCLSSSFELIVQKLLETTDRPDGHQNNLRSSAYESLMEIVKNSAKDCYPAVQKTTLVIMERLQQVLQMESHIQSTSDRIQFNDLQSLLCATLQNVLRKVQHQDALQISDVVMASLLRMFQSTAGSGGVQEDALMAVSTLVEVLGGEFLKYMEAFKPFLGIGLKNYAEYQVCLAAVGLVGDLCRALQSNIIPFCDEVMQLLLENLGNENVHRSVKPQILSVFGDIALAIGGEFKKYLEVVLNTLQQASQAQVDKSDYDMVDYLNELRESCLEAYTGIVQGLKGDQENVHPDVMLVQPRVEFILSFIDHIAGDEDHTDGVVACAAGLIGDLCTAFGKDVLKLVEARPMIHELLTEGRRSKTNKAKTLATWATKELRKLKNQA

SMILES	CCT modulator	Rango release inh	Giardia kill	Rango-impB inh	MmCpn inh
CCCCC(CC)CNC(=O)c1ccc2c(=O)n(CCOC)c(=O)[nH]c2c1 (configuration not stated)	·	·	–	·	·
Cc1c(C(=O)N2CCN(Cc3ccc4c(c3)OCO4)CC2)sc2ncnc(N3CCN(c4ccccc4)CC3)c12	–	?	–	–	–
Cc1c(C(=O)N2CCN(Cc3ccc4c(c3)OCO4)CC2)sc2ncnc(N3CCN(c4ccccc4F)CC3)c12	-73.5	–	–	–	–
Cc1nn(C2CCS(=O)(=O)C2)c(C)c1C=O (configuration not stated)	-35.7	–	–	–	–
Cc1ccc(C)n1C1CCS(=O)(=O)C1 (configuration not stated)	–	–	?	–	–
Cc1cc2c(c(=O)o1)C1O[C@](c3ccsc3)(Cc3cc(C#N)ccc31)O2	·	·	·	·	–[15.4 µM]
O=C(Nc1nnc(C2CCCCC2)s1)C1CCN(C(=O)c2ccco2)CC1	·	·	–	·	·
Cc1ccc(S(=O)(=O)Cc2nc(-c3ccc(C(=O)NCc4ccccc4F)cc3)oc2C)cc1	·	·	–	·	·
CCOC(=O)c1ccc(N2C(=O)CC(N3CCC(Nc4ccc(F)cc4)CC3)C2=O)cc1 (configuration not stated)	-64.6	–	–	–	–
CCc1cc(=O)oc2cc(OC(C)=O)cc(OC(C)=O)c12	–	11.6µM	–	?	–
COc1ccc(Cn2nnnc2C(c2ccccn2)N2CCN(c3ccc(O)cc3)CC2)cc1 (configuration not stated)	·	·	–	·	·
O=C(Nc1nnc2n1CCS2)c1ccco1	-73.4	–	–	–	–
CCC/C=C1\CCCOC(C(=O)NCc2ccccc2)(C(F)(F)F)C1 (configuration not stated)	·	·	–	·	·
CC(C)N(C(=O)c1ccc(C(=O)Nc2ccc([N+](=O)[O-])cc2)cc1)C(C)C	-31.9	–	–	–	–
CN(C)S(=O)(=O)c1ccc(NC(=O)c2ccc([N+](=O)[O-])cc2)cc1	–	–	–	–	–
CC(=O)c1ccc(NC(=O)CN2CCN(CC(=O)Nc3ccc(C(C)=O)cc3)CC2)cc1	–	–	–	–	–
CC(=O)c1ccc(NC(=O)CN2CCN(c3ccccc3)CC2)cc1	-33.6	?	–	–	–
COc1ccc(C(=O)Nc2ccc3[nH]ccc3c2)cc1OC	–	–	–	–	·
COc1ccc(C(=O)Nc2ccc3[nH]ccc3c2)cc1	–	–	-88.6	–	·
COc1ccc(NC(=O)OCCn2c([N+](=O)[O-])cnc2C)cc1	–	–	-86.6	–	–
Cc1ccc(NC(NC(=O)OCCn2c([N+](=O)[O-])cnc2C)C(Cl)(Cl)Cl)cc1 (configuration not stated)	·	·	·	·	–
Cc1ncc([N+](=O)[O-])n1CCOC(=O)NC(NCc1ccccc1Cl)C(Cl)(Cl)Cl (configuration not stated)	–	–	-119.1	–	–
C#CCOCCOCCOCCNc1nc(N2CCN(C(=O)CCCCCCCCCCNC(=O)[C@H](CCCCN)n3cc(CCO)nn3)CC2)nc(N2CCN(C(=O)CCCCCCCCCCNC(=O)[C@H](CCCN=C(N)N)n3cc(C[C@@H](C)CC)nn3)CC2)n1	–	?	–	65.1µM	–
C#CCOCCOCCOCCNc1nc(N2CCN(C(=O)[C@H](CCCCN)n3cc([C@@H](N)C(C)CC)nn3)CC2)nc(N2CCN(C(=O)[C@H](CCCCN)n3cc([C@@H](N)CC(C)C)nn3)CC2)n1 (some centres not stated)	–	–	–	51.7µM	·
C#CCOCCOCCOCCNc1nc(N2CCN(C(=O)[C@H](CCCCN)n3cc([C@@H](N)[C@H](C)CC)nn3)CC2)nc(N2CCN(C(=O)[C@H](CCCCN)n3cc([C@@H](N)CC(N)=O)nn3)CC2)n1	–	–	–	?	–
SMILES	CCT modulator	Rango release inh	Giardia kill	Rango-impB inh	MmCpn inh
C#CCOCCOCCOCCNc1nc(N2CCN(C(=O)[C@H](CCCN=C(N)N)n3cc(C(N)[C@H](C)CC)nn3)CC2)nc(N2CCN(C(=O)[C@H](CCCN=C(N)N)n3cc(C(N)[C@@H](C)CC)nn3)CC2)n1 (some centres not stated)	–	?	–	65.1µM	–
Cc1nn(C)cc1C1C2=C(CC(C)(C)CC2=O)N(c2ccccc2)C2=C1C(=O)CC(C)(C)C2	–	8.2µM	–	?	–
O=C(CCCl)Nc1cccc2cccnc12	·	·	–	·	·
CCN(CC)CCOC(=O)c1ccc(N/C=C(/C#N)c2nc(-c3ccc4c(c3)OCO4)cs2)cc1	–	–	-102.8	?	–
CCN(CC)CCOC(=O)c1ccc(N/C=C(/C#N)c2nc(-c3cc4ccccc4oc3=O)cs2)cc1	–	–	-88.6	–	–
CCN(CC)CCOC(=O)c1ccc(N/C=C(/C#N)c2nc(-c3ccc(OC)cc3)cs2)cc1	–	–	–	?	–
COc1ccc(C2/C=C\CN(C(=O)c3ccccc3)C(C)C(=O)N2Cc2ccc(F)cc2)cc1 (configuration not stated)	·	·	–	·	·
O=C(NCc1nnnn1-c1ccc(F)cc1)c1ccc([N+](=O)[O-])o1	–	–	-94.5	–	–
Cc1ccc(-n2nnnc2CNC(=O)c2ccc([N+](=O)[O-])o2)cc1C	–	–	?	–	–
O=C(NCC(c1ccc(F)cc1)N1CCOCC1)c1ccc([N+](=O)[O-])o1 (configuration not stated)	–	–	-100.9	–	–
COc1cccc(CNC(=O)COC(=O)c2ccc(S(C)(=O)=O)c([N+](=O)[O-])c2)c1	·	·	–	·	·
CCOc1cc(/C=N/NC(=O)c2ccc(-c3csc(Nc4ccc(C)cc4)n3)cc2)ccc1OCC(=O)O	–	–	–	–	–
O=C(O)COc1ccc(/C=N/NC(=O)c2ccc(-c3csc(Nc4ccc(Cl)cc4)n3)cc2)cc1	–	–	–	51.7µM	–
Cc1ccc(S(=O)(=O)N2CCN(c3nc(-c4ccncc4)nc4ccccc34)CC2)cc1	·	·	–	·	·
CC(=O)c1c(C)[nH]c(C(=O)/C(C#N)=C/c2cccc(C)c2)c1C	–	–	–	?	?
CCOC(=O)c1c(C)[nH]c(C(=O)/C(C#N)=C/c2ccc(OCC)cc2)c1C	-118.8	–	–	–	–
CN(C)CCCN=c1cc(-c2ccccc2)oc2ccc(Cl)cc12	–	–	-86.4	–	–
CCc1nnc(NC(=O)c2oc3ccc(Br)cc3c2C)s1	-34.3	–	–	–	–
O=C(CNC(=O)C1CCCCC1)OCC(=O)c1ccc([N+](=O)[O-])cc1	·	·	–	·	·
Cc1ccc(C)c(S(=O)(=O)N2CCC3(CC2)OCCO3)c1	–	–	–	–	–
